Values quoted from earlier work, collected in US20260042854A1, “ANTI-GLP-1R ANTIBODIES AND USES THEREOF” (SCIWIND BIOSCIENCES USA CO., LTD, priority 2022, published 2026).

Chains of the proteins cited; added tags and fusions are not shown. Residues count along the entry.
UniProt P43220, 24-463: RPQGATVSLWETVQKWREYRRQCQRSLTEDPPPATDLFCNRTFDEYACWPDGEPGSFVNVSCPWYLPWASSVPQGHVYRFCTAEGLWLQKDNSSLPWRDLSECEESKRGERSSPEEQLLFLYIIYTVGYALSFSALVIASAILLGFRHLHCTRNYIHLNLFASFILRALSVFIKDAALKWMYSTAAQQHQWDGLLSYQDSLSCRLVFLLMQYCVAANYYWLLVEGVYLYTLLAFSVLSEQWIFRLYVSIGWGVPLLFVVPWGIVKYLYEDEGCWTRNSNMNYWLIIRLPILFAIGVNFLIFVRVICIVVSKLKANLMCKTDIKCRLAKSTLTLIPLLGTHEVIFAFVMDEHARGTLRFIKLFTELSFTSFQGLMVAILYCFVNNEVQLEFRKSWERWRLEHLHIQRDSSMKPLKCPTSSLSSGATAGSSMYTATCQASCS

Target: GLP-1R (Homo sapiens, UniProt P43220)
Conditions: background statement; cited from earlier work

Substance: exendin 9-39 [Avexitide, reference compound]
- clinical efficacy in hypoglycemia (in words): clinically demonstrated the efficacy of reversing hypoglycemia
